From ChEMBL document CHEMBL1128184, “Topoisomerase II-mediated DNA cleavage by adocia- and xestoquinones from the Philippine sponge Xestospongia sp” (J Med Chem, 1995)

Test: Ratio of BR1 IC50 to xrs-6 IC50
Type: functional
In short: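 MTT assay run in parallel on repair-competent CHO BR1 (40 000 cells/well) and repair-deficient xrs-6 (60 000 cells/well), both in αMEM with serum. 4 h attachment, then 18 h drug exposure from DMSO (final 1% or less), then drug-free medium. Four wells per dose, A540 against DMSO controls. The ratio is the BR1 IC50 divided by the xrs-6 IC50.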

Compound: O=C1c2c(O)ccc(O)c2C(=O)c2c(NCCNCCO)ccc(NCCNCCO)c21 [MITOXANTRONE]
- Ratio: 9
